Results reported in PMC7723054.
This is one part of the list.

T1: LIN28A (human?, UniProt Q9H9Z2 1-209)
T1 sequence: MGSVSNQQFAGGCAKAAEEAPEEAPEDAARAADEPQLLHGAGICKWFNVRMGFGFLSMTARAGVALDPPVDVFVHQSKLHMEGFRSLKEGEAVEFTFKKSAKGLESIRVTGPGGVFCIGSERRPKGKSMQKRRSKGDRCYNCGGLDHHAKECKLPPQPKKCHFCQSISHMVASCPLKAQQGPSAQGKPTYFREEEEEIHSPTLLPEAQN

T2: CIRBP (Homo sapiens, UniProt Q14011 1-172)
T2 sequence: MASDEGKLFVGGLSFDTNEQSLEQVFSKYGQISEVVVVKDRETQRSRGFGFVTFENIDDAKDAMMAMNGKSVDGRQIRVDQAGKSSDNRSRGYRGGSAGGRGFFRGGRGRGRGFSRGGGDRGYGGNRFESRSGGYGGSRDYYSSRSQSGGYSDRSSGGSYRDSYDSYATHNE

T3: DHX36 (Homo sapiens, UniProt Q9H2U1 1-1008)
T3 sequence: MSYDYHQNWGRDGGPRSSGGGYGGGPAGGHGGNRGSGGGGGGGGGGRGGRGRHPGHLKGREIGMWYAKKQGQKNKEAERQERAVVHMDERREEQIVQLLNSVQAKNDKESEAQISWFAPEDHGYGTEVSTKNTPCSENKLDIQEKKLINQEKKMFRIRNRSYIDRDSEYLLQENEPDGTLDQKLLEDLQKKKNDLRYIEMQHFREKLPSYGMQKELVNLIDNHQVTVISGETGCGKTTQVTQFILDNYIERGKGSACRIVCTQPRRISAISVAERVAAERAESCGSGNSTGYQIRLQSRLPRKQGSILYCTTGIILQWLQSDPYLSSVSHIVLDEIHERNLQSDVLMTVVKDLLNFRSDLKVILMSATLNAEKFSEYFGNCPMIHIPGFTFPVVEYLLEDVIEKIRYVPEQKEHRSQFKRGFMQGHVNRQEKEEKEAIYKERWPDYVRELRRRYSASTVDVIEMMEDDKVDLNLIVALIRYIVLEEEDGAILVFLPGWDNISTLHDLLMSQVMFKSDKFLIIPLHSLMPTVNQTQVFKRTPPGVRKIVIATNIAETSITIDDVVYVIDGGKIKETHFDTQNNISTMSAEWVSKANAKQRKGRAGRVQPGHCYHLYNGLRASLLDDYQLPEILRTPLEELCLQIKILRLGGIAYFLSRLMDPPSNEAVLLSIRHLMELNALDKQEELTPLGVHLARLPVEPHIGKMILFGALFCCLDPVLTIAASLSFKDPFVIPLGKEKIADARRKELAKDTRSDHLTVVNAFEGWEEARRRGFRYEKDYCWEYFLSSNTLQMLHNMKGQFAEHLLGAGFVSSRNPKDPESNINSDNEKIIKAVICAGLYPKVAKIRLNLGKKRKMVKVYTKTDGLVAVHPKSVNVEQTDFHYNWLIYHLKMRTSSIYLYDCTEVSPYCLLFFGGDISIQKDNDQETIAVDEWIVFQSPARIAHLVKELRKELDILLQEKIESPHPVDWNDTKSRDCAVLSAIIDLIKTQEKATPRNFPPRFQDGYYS

B1: PARIS_ID17 (structured_RNA)
RNA: GGGACUACGUGCAACUGGAUAGAAAACGGGUGUACGAAGUUUCAGCGCUCUUGGCACAUCUGGUUGGUGACACUGUUUUGUGAGAUGGGUUGAAAGCGCUGAAGCUUCGUGCAC
B2: hsa-mir-4274 (structured_RNA)
RNA: GGGAAAUACCGCAGAAGACCCCAAAGCAGGUGUACGAAGUUUCAGCGCCGGGGCCUGGCGCUCCUCUACCUUGUCAGGUGACCCAGCGCUGAAGCUUCGUGCAC
B3: hsa-mir-199a-2 (structured_RNA)
RNA: GGGAAAACUACAGGGGCUGGUUUAGAGCGGUGUACGAAGUUUCAGCCUGUUCAGGACAAUGCCGUUGUACAGCUGAAGCUUCGUGCAC
B4: hsa-mir-4757 (structured_RNA)
RNA: GGGAGCGCGCUGAGCAACUAAUAGUCGAGGUGUACGAAGUUUCAGCCACGGUGUCUGCGGGAGGAGACCAUGGCUGAAGCUUCGUGCAC
B5: hsa-mir-523 (structured_RNA)
RNA: GGGAAUGCUCUUCUUCGCGAGCGUGUACGGUGUACGAAGUUUCAGCUUUCUGUUGUCUGAAAGAAAAGAACGCUGAAGCUUCGUGCAC
B6: hsa-mir-3119-2 (structured_RNA)
RNA: GGGAGGACUACGCUAGGUUUAUGCAGUCGGUGUACGAAGUUUCAGCUGGCAAAGACAUAGAUUGUUUAGCUACCCCUUUGCCAGCUGAAGCUUCGUGCAC
B7: PARIS_ID42 (structured_RNA)
RNA: GGGAACGGCUAAUGUUGUGGCGACAGGUGGUGUACGAAGUUUCAGCCCAUUUUUCUAGUGAUGGCUUUGAGGUUAUUUGCAGUUUCCUAGCCAUCUCAAAGUGUGGCUGAAGCUUCGUGCAC
B8: hsa-mir-365b (structured_RNA)
RNA: GGGAAAACCUGGUUCAGUAACGACCGAGGGUGUACGAAGUUUCAGCAGCUGUGUUUUCUGACUCAGUCAUAAUGCUGAAGCUUCGUGCAC
B9: hsa-mir-4762 (structured_RNA)
RNA: GGGAAUGCGAGACAUCUCGUUGGCAGUAGGUGUACGAAGUUUCAGCGAAGCCUUGAUCAGAAGCUAGGAAGGCUUCGCUGAAGCUUCGUGCAC
B10: hsa-mir-1321 (structured_RNA)
RNA: GGGAAAGUCAGCGCGUUUGCAACGAAGGGGUGUACGAAGUUUCAGCCCUGUUUUACAAAUAAGGAAAUAAACUCAGGGCUGAAGCUUCGUGCAC
B11: hsa-mir-1261 (structured_RNA)
RNA: GGGAAAGUUAAGACAGUAACUGUGCAAUGGUGUACGAAGUUUCAGCGCUUAUGGGGAUAUUGUGGUUGAUCUGUUCUAUCCAGAUGACGCUGAAGCUUCGUGCAC
B12: hsa-mir-205 (structured_RNA)
RNA: GGGACGGCAUAGUCGGUCGAUAUUAUCCGGUGUACGAAGUUUCAGCAGUCUGUCUCAUACCCAACCAGAUUGCUGAAGCUUCGUGCAC
B13: hsa-mir-3651 (structured_RNA)
RNA: GGGAACAGAGCAUGAGGAGUAAAUACAGGGUGUACGAAGUUUCAGCAUGGAGGCUGCUUCUCCUCAGCAGCUGCCAUAGCUGAAGCUUCGUGCAC
B14: hsa-mir-548h-1 (structured_RNA)
RNA: GGGAAACCGCACUUUUCGAAAUAAGCCUGGUGUACGAAGUUUCAGCUGUCAUUACUUUUAAUGGUAGCUGAAGCUUCGUGCAC
B15: hsa-mir-6752 (structured_RNA)
RNA: GGGAAACGACAGUAAUAGCCAAUUCGGCGGUGUACGAAGUUUCAGCUGGAGCCAGGGGGCCCAGGUCUACAGCUUCUCCCCGCUCCCGCUGAAGCUUCGUGCAC
B16: hsa-mir-550a-3 (structured_RNA)
RNA: GGGACAAUGGCCCUGAAAACAAGCGCUCGGUGUACGAAGUUUCAGCAGAGUCCUGUUGUUGUAAGAUAGUGUCUGCUGAAGCUUCGUGCAC
B17: hsa-mir-4311 (structured_RNA)
RNA: GGGACAGUGAAAGCGACCGGCAUACUAGGGUGUACGAAGUUUCAGCUGUGACCUGGAGCAGCUCAGGAGGGCUUCCUGGGUGAGGUGGCAGGUUACAGCUGAAGCUUCGUGCAC
B18: hsa-mir-106a (structured_RNA)
RNA: GGGAGCGGUACUUCCGACCACAUCAGAUGGUGUACGAAGUUUCAGCGCAGGUAGCUUUUUGAGAUCUACUGCGCUGAAGCUUCGUGCAC
B19: hsa-mir-6715b (structured_RNA)
RNA: GGGAAAAGAAUGGGCAAGUAUGUAACAGGGUGUACGAAGUUUCAGCUGGCAAUUCAGUAAAAAUGCUCAGCUGAAGCUUCGUGCAC
B20: hsa-mir-93 (structured_RNA)
RNA: GGGAAGAGGCAAGGCACCUACGCUCUACGGUGUACGAAGUUUCAGCAGGUAGUGUGAUUACCCAACCUACUGCUGAAGCUUCGUGCAC
B21: G4_(GGGUU)6 (structured_RNA)
RNA: GGGACGCUGUCCUAAGAUGAACAUGCUCGGUGUACGAAGUUUCAGCGGGUUGGGUUGGGUUGGGUUGGGUUGGGUUGCUGAAGCUUCGUGCAC
B22: hsa-mir-4674 (structured_RNA)
RNA: GGGACACAAGGAAUGAGCUCUUUUCGUGGGUGUACGAAGUUUCAGCCACGCCGCGCCGCCGGGUCCCUCCUCCCCGGAGAGGCUGGCUGAAGCUUCGUGCAC

Experiments:
Assay in all cases: FOREST: bead pull-down of RNA structure library v1, barcode microarray; U1A/LIN28A: 20 mM HEPES pH 7.5, 80 mM KCl, 20 mM NaCl, 10% glycerol, 2 mM DTT, 0.1 ug/uL BSA, 4 C; BG4/CIRBP/DHX36: 10 mM Tris-HCl pH 7.5, 100 mM KCl (or LiCl),; high values mean tight binding
U1A = U1A (Homo sapiens, UniProt P09012)
LIN28A = biological target: T1, LIN28A
CIRBP = biological target: T2, CIRBP
DHX36 = biological target: T3, DHX36

Binder	binding signal (U1A) [z-score]	binding signal (LIN28A) [z-score]	binding signal (CIRBP) [z-score]	binding signal (DHX36) [z-score]
B1	0.0463	1.45	0.532	0.641
B2	0.0436	-0.686	0.458	0.0486
B3	0.0431	0.0696	0.841	0.172
B4	0.0428	-1.2		0.308
B5	0.0412	0.0209	-0.638	-0.0164
B6	0.0398	1.53	0.736	1.87
B7	0.0388	0.423	0.619	0.0752
B8	0.0372	-0.499	0.915	0.458
B9	0.0366	0.724	1.06	0.44
B10	1.7	0.679	0.793	-0.19
B11	0.0342	0.836	0.649	0.556
B12	0.0334	-0.18	-0.269	-0.741
B13	0.0316	1.83	1.83	-0.146
B14	0.0313	-1.64	-0.296	-0.976
B15	0.0283	-0.305	-0.872	0.447
B16	0.0275	0.439	0.533	-0.0673
B17	0.0275	-0.243	-0.891	0.224
B18	0.0262	-2.03	-1.48	-0.746
B19	0.0255	1.31	2.97	1.63
B20	0.0253	1.49	0.92	0.687
B21	1.7	1.43	4.07	7.17
B22	0.025	0.776	0.648	0.195
